US8796297B2, “4-substituted-2-amino-pyrimidine derivatives” (AbbVie Inc., priority 2009, dated 2014)
pEC50, pKi: −log10 of the molar value.

By UniProt entry, the sequences of proteins in these tests, tags left out. Where a name states a change or a piece, a line headed by the entry shows the natural chain unless it says otherwise.
UniProt Q9QYN8: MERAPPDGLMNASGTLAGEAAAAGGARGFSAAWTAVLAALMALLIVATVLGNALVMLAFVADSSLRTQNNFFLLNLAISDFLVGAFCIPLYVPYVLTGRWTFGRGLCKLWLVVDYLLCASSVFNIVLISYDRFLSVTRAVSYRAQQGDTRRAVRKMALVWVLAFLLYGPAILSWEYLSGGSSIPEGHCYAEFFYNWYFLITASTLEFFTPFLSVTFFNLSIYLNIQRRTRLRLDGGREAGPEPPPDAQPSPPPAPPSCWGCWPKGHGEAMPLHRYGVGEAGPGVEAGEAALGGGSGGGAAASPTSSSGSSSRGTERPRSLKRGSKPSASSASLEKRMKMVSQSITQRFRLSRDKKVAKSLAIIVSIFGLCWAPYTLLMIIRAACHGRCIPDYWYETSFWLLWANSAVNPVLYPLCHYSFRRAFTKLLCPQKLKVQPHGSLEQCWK

What was measured:
[1] = target: T1, rat histamine H3 receptor (Rattus norvegicus (Rat), UniProt Q9QYN8); assay: Radioligand competition binding assay, rat H3 receptor; details: [3H]-N-α-methylhistamine competition binding
Method: To determine the effectiveness of representative compounds of this invention as histamine-3 receptor ligands (H3 receptor ligands), the following tests were conducted according to previously described methods (see European Journal of Pharmacology 1990, 188, 219-227; Journal of Pharmacology and Experimental Therapeutics 1995, 275, 598-604; Journal of Pharmacology and Experimental Therapeutics 1996, 276, 1009-1015; and Biochemical Pharmacology 1973, 22, 3099-3108).
The rat H3 receptor was cloned and expressed in cells, and competition binding assays carried out, according to methods previously described (see Esbenshade, et al. Journal of Pharmacology and Experimental Therapeutics 2005, 313, 165-175; Esbenshade et al., Biochemical Pharmacology 2004, 68, 933-945; and Krueger, et al. Journal of Pharmacology and Experimental Therapeutics 2005, 314, 271-281). […]
Membrane preparations were incubated with [^3H]-N-α-methylhistamine (0.5-1.0 nM) in the presence or absence of increasing concentrations of ligands for H3 receptor competition binding. […] Bound radiolabel was determined by liquid scintillation counting. For all of the radioligand competition binding assays, IC50 values and Hill slopes were determined by Hill transformation of the data and pKi values were determined by the Cheng-Prusoff equation.

[2] = target: T1, rat histamine H3 receptor; assay: FLIPR functional assay (Ca2+, HEK-293 cells coexpressing Gαqi5), rat H3 receptor; assay type: cell-based; details: FLIPR agonist potency
Description: There are many methods available to show the effectiveness of compounds as histamine H3 receptor ligands. Histamine H3 receptors from mammalian species have been cloned. Methods to clone, express, and assess the potency and functional activity of such cloned genes are well known to those skilled in the art of molecular biology. […] For partial agonist or full agonist ligands, addition of compound to the cells led to an increase in intracellular Ca^+2 which was detected by FLIPR (Fluorescence Imaging Plate Reader; Molecular Devices, Sunnyvale, Calif.) technology. The fluorescence intensities measured before addition of the test compound were subtracted from the fluorescence intensities at later time points. Peak response values determined at each concentration of ligand were expressed as a percentage of the response obtained with a maximal concentration (1 μM) of the full agonist R-α-methyl-histamine (RAMH). Concentration versus response data were analyzed to obtain compound potency as EC50 values for full and partial agonists.

Nc1nccc(N[C@H]2CC[C@H](N)CC2)n1 [Example 16, Trans-N^4-(4-aminocyclohexyl)pyrimidine-2,4-diamine]
pKi [1]: 6.85 | pEC50 [2]: 6.35
